Assay results taken from US8765481B2, “Method for detecting peroxide explosives” (dated 2014).

Tests used:
[1] = Solubility of HMTD in ionic liquids (content via 1H NMR); settings: for rel. HMTD integral: 1H NMR, sum of the two HMTD proton signals after normalization of an IL methyl group to 3; for C[HMTD]: solubility of HMTD in the ionic liquid
[2] = solubility of TATP in the ionic liquid

Substance | rel. HMTD integral [1] | C[HMTD] [1] | C[TATP] [2]
1-Butyl-3-methylpyrolidinium bis(trifluoromethane)sulfonimide | 0.55 | 2.26 wt.-% | –
1-Ethyl-3-methylimidazolium diethylphosphate | 0.14 | 0.92 wt.-% | –
1-butyl-3-methylimidazolium bis(trifluoromethane) sulfonimide | – | – | 0.94 wt.-%
1-ethyl-3-methylimidazolium bis(trifluoromethane) sulfonimide | 0.54 | 2.39 wt.-% | 0.38 wt.-%
1-hexyl-3-methylimidazolium bis(trifluoromethane)sulfonimide | 1.17 | 4.53 wt.-% | 0.86 wt.-%
N-hexylpyridinium bis(trifluoromethane)sulfonimide | 0.54 | 2.11 wt.-% | 0.92 wt.-%
